Experimental findings from patent US20050054531A1, “N-(phosphonomethyl) glycine (glyphosate) salt, a preparation process thereof, a concentrate composition and a phytotoxic formulation comprising it, and a method to combat weeds in a crop with a formulation thereto” (priority 2003, published 2005) are described below.

The nature of the data set: Physical properties of the salt (solubility, pH of solution). It counts as physicochemical.

As for “1H-1,2,4-triazole-3-yl-amine N-(phosphonomethyl)-glycine salt [Glyphosate triazolamine salt]”, the “solubility in alcohol, ketone, and aromatic solvents” value was “insoluble, or very little soluble”; the solubility in water result is given as “highly soluble in water”.
